The target of experiment [1] is T1, mouse CMKLR1 (chemerin receptor) (mouse, UniProt P97468 1-371).
T1 sequence (looked up): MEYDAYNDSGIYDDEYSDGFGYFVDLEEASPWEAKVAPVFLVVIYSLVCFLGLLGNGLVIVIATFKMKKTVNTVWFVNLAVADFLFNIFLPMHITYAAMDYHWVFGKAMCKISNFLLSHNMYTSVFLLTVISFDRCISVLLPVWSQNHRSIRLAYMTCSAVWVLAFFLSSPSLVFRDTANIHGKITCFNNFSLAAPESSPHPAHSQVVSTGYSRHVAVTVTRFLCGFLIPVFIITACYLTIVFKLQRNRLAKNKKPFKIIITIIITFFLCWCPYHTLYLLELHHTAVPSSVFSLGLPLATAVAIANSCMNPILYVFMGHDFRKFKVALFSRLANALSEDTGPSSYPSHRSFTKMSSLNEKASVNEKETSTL
Put plainly: cell-based or functional assay.

Experiment [2] deals with T2, human CMKLR1 (chemerin receptor) (human, UniProt Q99788 1-373).
T2 sequence (looked up): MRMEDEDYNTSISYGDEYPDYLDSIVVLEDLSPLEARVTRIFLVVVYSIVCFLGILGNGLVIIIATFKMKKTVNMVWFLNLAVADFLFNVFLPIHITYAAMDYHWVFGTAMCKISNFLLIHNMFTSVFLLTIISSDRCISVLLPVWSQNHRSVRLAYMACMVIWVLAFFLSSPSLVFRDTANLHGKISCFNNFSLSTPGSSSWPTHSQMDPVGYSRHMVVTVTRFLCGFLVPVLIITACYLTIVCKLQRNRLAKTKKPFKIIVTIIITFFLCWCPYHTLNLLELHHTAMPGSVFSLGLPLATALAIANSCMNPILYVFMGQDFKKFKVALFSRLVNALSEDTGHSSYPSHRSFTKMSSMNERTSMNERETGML
Put plainly: cell-based or functional assay.

One may read the EC50 as the concentration giving half of the maximal effect. Read a low EC50 as greater potency. Usually pEC50 stands for the negative decadic logarithm of the EC50, by convention in mol/L.

B1: l-Chem 149-157 (lipidated C-terminal 9 amino acids of human chemerin) (peptide)
peptide: KGGYFPGQFAFS
modifications: N-terminus pegylated with PEG8-propionic acid, palmitic acid coupled to the N-terminal amine of the PEG
B1: in experiment [1], the “EC50” value is 4 nM; the “EC50 (nM), + wash” value was 42.9 nM; the pEC50 amounted to 8.38. In experiment [2], a half-maximal response (EC50) required 4.3 nM; the “EC50 (nM), + wash” value worked out at 90.2 nM; the negative-log EC50 (pEC50) stood at 8.35.

(Values after patent US10233219 (TUFTS MEDICAL CENTER, dated 2019).)
